Literature values in patent publication US20200315984A1 (priority 2013, published 2020).
Only a part of the results on these compounds is given; other tests are left out.

Conditions: cited from earlier work

Which pKa does the source give for `CCC(=O)N(c1ccccc1)C1(COC)CCN(CCn2nnn(CC)c2=O)CC1` here?
The pKa was 6.5.

For fentanil, which pKa is on record?
The pKa was 8.4.

Which pKa does the source give for `CCC(=O)N(c1ccccc1)C1(C(=O)OC)CCN(CCC(=O)OC)CC1` here?
The pKa was 7.

For `CCC(=O)N(c1ccccc1)C1(COC)CCN(CCc2cccs2)CC1`, which pKa is on record?
Its pKa is 8.
